# System: 304 E. coli clinical isolates
# Type: cell-based, Escherichia coli
# Details: 304-isolate panel, antibiotic combined with LBP-EC01 v.2
smiles,measurement,value
CC1=C(C(=O)O)N2C(=O)[C@@H](NC(=O)[C@H](N)c3ccccc3)[C@H]2SC1 [Cephalexin],"Host Range % on all Strains (n = 304), Combination: Antibiotic + LBP-EC01 v.2",85.5%

# — patent US20250345378A1 (priority 2022, published 2025)
